Data taken from PubChem BioAssay (NCATS).
“And” between values parts separate entries of the source, which are not always exact repeats. Identical values can stand only once. This is a selection; strong and weak results do not stand in their true shares. Inconclusive results are not listed. The source made the active and inactive calls. Unless noted, calls come from the whole dose curve; as a rule, active = well fitted curve in the direction sought with a large enough effect; inconclusive = small, poorly fitted or top-dose-only effect, or another doubt; inactive = no such curve, though single readings can be large; an effect the other way counts as inactive or inconclusive.

Protein sequences, listed by entry. Tags and fused reporters are not part of them.
UniProt P04637, whole entry, looked up: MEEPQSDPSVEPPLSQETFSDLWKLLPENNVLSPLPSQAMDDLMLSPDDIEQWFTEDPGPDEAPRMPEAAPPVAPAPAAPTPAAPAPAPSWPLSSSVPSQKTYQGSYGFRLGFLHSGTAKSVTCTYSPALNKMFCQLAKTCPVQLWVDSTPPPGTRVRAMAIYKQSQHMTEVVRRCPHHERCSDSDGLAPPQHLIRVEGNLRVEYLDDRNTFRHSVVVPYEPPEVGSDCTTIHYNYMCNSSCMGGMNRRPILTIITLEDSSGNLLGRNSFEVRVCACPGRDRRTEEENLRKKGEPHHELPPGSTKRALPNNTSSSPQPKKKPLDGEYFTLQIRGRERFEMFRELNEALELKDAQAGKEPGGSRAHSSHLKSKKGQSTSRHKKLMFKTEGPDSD

These compounds were tested against Cellular tumor antigen p53 (Homo sapiens) (UniProt P04637) (assay: Primary qHTS for small molecule compounds that upregulate eGFP-tagged delta133p53alpha (in C-terminal) cells. (AID 2060324;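 note: 0% = DMSO wells and 100% = 57.5 µM 5-azacytidine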)). Conditions: NCI-H358 delta133p53alpha-eGFP (C-terminal tag), GFP fluorescence imaging, 24 h, percent of 5-azacytidine response, DMSO as zero; at 57.5 µM (top of the series).
Description: Assay Development and Screening Technology
National Center for Advancing Translational Sciences (NCATS),
National Institute of Health (NIH), Rockville, Maryland
Cellular senescence (CS) is one of the hallmarks of aging and age-related diseases. Senescent cells are characterized by an irreversible growth arrest, an increase in senescence-associated beta-galactosidase (SA-beta-gal) activity and p16INK4a expression, an activation of the DNA damage response pathways, and the emergence of a senescence-associated secretory phenotype (SASP).
Delta133p53alpha, a human/primate-specific p53 protein isoform, delays or inhibits the induction of CS and SASP in various types of human cells, including progeria-derived fibroblasts, primary normal astrocytes, and CD8+ T lymphocytes. Induction of delta133p53alpha with small molecule compounds may provide therapeutic opportunities for inhibition of senescence/SASP-associated pathologies in progeria syndromes, astrocyte-mediated neuroprotection in neurodegenerative diseases, and possibly prevention and treatment of a wider range of senescence- and aging-associated diseases.
Here we report the development and validation of a cell-based quantitative high throughput screening (qHTS) assay in 1,536-well format. This qHTS assay uses the NCI-H358 cell line with doxycycline-inducible expression of enhanced green fluorescent protein (eGFP)-tagged delta133p53alpha, which allows efficient and highly quantitative measurement of the protein levels.
PROTOCOL TABLE (as described by Inglese J, Shamu CE and Guy RK. 2007)
SEQUENCE No. (e.g., 1, 2, 3, etc.); […] (e.g., Cells, Incubation, Reagent, etc.); VALUE; DESCRIPTION.
1; Cells; 4uL; 800 doxycycline treated cells / well in doxycycline-free media, 1536-well black, clear-bottom low base Aurora microplates.
2; Compounds; 23 nL; Kalypsis pin tool (Wako) equipped with 1536-well pin heads, 5-azacytidine positive control.
3; Incubation; 24 hr; 37C, 5% CO2; 95% relative humidity.
4; Aspiration; 1x; BioTek EL406 washer dispenser (Agilent).
5; Fixing; 3.5% paraformaldehyde, BioTek EL406 washer dispenser (Agilent).
6; Washing; 1x PBS; BioTek EL406 washer dispenser (Agilent).
7; Nuclei staining; 1:1000 dilution of Hoechst 33342 (Thermofisher), BioTek EL406 washer dispenser (Agilent).
8; Incubation; 20 min; in the dark at room temperature.
9; Washing; 2x, 1x PBS (ThermoFisher), BioTek EL406 washer dispenser (Agilent).
10; Reagent; 10 uL; 1x PBS per well, sealed with clear adhesive tape.
11; Detection; Fluorescence, Acumen eX3 laser scanning cytometer (STP Labtech), GFP filters […].
NOTES (numbers refer to sequence numbers above).
1. […] Cells were trypsinized, counted using a Counted 3 Automated Cell Counter (Thermo Fisher), and diluted to a concentration of 200,000 cells/ml. […]

Compound | GFP increase (activation)
CN(C(=O)Cc1ccc(Cl)c(Cl)c1)[C@@H]1CC[C@]2(CCCO2)C[C@H]1N1CCCC1 | inactive: 1.75%
CN(C(=O)Cc1ccc(Cl)c(Cl)c1)[C@H]1CCCC[C@@H]1N1CCCC1 | inactive: 11.3% and inactive: 0.981%
CN(C(=O)Cc1ccccc1)[C@@H]1CC[C@]2(CCCO2)C[C@H]1N1CCCC1 | inactive: 15.9%
CN(C(=O)Cc1ccc(Cl)c(Cl)c1)[C@@H]1CCCC[C@@H]1N1CCCC1 | inactive: 0.473%

What follows are compounds tested against Aldehyde dehydrogenase, mitochondrial (Homo sapiens) (UniProt P05091) (assay: qHTS for Inhibitors of the Aldehyde Dehydrogenase Family (ALDH2) Validation screens (AID 2061302; active = well fitted inhibition curve with a large enough effect; title and protocol of this record describe different tests;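 note: plate controls were DMSO vehicle for no effect and maximal DPI positive control response for full effect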)). Conditions: S. pombe CHP2027 cells, fluorescence cytometry, 18 h; at 42.6 µM (top of the series).

Compound | activity change, negative = inhibition
CN(C(=O)Cc1ccc(Cl)c(Cl)c1)[C@@H]1CC[C@]2(CCCO2)C[C@H]1N1CCCC1 | inactive: -9%
CN(C(=O)Cc1ccc(Cl)c(Cl)c1)[C@H]1CCCC[C@@H]1N1CCCC1 | inactive: 5% and inactive: -8.56%
CN(C(=O)Cc1ccccc1)[C@@H]1CC[C@]2(CCCO2)C[C@H]1N1CCCC1 | inactive: -1.59%
CN(C(=O)Cc1ccc(Cl)c(Cl)c1)[C@@H]1CCCC[C@@H]1N1CCCC1 | inactive: -2.05%

These compounds were tested against Aldehyde dehydrogenase, mitochondrial (Homo sapiens) (UniProt P05091) (assay: qHTS for Inhibitors of the Aldehyde Dehydrogenase Family (ALDH2) Primary screen (AID 2061308;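 note: plate controls were vehicle for no effect and reference inhibitor for full effect; nearly all actives have a fitted effect of over 55% in size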)). Conditions: ALDH2 enzyme inhibition qHTS, 1536-well; at 56 µM (top of the series).

Compound | activity change, negative = inhibition
O=C(O[C@H]1CN2CCC1CC2)C1NCc2ccccc2[C@@H]1c1ccccc1 (stereo not given in full) | inactive: 5.08%
CN(C(=O)Cc1ccc(Cl)c(Cl)c1)[C@H]1CCCC[C@H]1N1CCCC1 | inactive: 7.48%
CCn1c(=O)n([C@@H]2CCN(CC3CCCCCCC3)C[C@H]2CO)c2ccccc21 | inactive: 5.56%
N#Cc1c(-c2ccc(-c3no[n+]([O-])c3C#N)cc2)no[n+]1[O-] | inactive: -89.5%
CN(C)C1(c2ccccc2)CCC2(CC1)OCCc1c2[nH]c2ccc(F)cc12 (stereo not given) | inactive: 7.73%

These compounds were tested against Retinaldehyde dehydrogenase 3 (Homo sapiens) (UniProt P47895) (assay: qHTS for Inhibitors of the Aldehyde Dehydrogenase Family (ALDH1A3) Validation screen (AID 2061312; note: % is set by controls: 0 for no effect and ±100 for the full control effect; nearly all actives have a fitted effect of over 45% in size)). Conditions: ALDH1A3 enzyme inhibition qHTS validation, fluorescence; at 42.4 µM (top of the series) unless noted.

Compound | activity change, negative = inhibition
O=C(O[C@H]1CN2CCC1CC2)C1NCc2ccccc2[C@@H]1c1ccccc1 (stereo not given in full) | inactive: 95.6% [at 84.7 µM]
CN(C(=O)Cc1ccc(Cl)c(Cl)c1)[C@@H]1CC[C@]2(CCCO2)C[C@H]1N1CCCC1 | inactive: -16%
CCn1c(=O)n([C@@H]2CCN(CC3CCCCCCC3)C[C@H]2CO)c2ccccc21 | inactive: 88.9% [at 84.7 µM]
CN(C(=O)Cc1ccc(Cl)c(Cl)c1)[C@H]1CCCC[C@@H]1N1CCCC1 | inactive: -10.5%
CN(C(=O)Cc1ccccc1)[C@@H]1CC[C@]2(CCCO2)C[C@H]1N1CCCC1 | inactive: 4.1%
CN(C)C1(c2ccccc2)CCC2(CC1)OCCc1c2[nH]c2ccc(F)cc12 (stereo not given) | inactive: 103% [at 84.7 µM]
CN(C(=O)Cc1ccc(Cl)c(Cl)c1)[C@@H]1CCCC[C@@H]1N1CCCC1 | inactive: 8.62%
